Legend:
in vivo [1] = conditions: male, Sprague-Dawley, rat, po, 10 mg/kg
in vivo [2] = conditions: male, Sprague-Dawley, rat, po, 10 mg/kg; remark: listed apart in the source
in vivo [3] = conditions: male, Sprague-Dawley, rat, po, 10 mg/kg; remark: listed apart in the source
in vivo [4] = conditions: male, Sprague-Dawley, rat, po, 10 mg/kg; remark: listed apart in the source
in vivo [5] = conditions: male, Sprague-Dawley, rat, po, 10 mg/kg; remark: listed apart in the source
in vivo [6] = conditions: male, Sprague-Dawley, rat, po, 10 mg/kg; remark: listed apart in the source
in vivo [7] = conditions: male, Sprague-Dawley, rat, po, 10 mg/kg; remark: listed apart in the source
in vivo [8] = conditions: male, Sprague-Dawley, rat, po, 10 mg/kg; remark: listed apart in the source
in vivo [9] = conditions: male, Sprague-Dawley, rat, po, 10 mg/kg; remark: listed apart in the source
in vivo [10] = conditions: male, Sprague-Dawley, rat, iv, 1 mg/kg
in vivo [11] = conditions: male, Sprague-Dawley, rat, iv, 1 mg/kg; remark: listed apart in the source
in vivo [12] = conditions: male, Sprague-Dawley, rat, iv, 1 mg/kg; remark: listed apart in the source
in vivo [13] = conditions: male, Sprague-Dawley, rat, iv, 1 mg/kg; remark: listed apart in the source
in vivo [14] = conditions: male, Sprague-Dawley, rat, iv, 1 mg/kg; remark: listed apart in the source
in vivo [15] = conditions: male, Sprague-Dawley, rat, iv, 1 mg/kg; remark: listed apart in the source

Cmax (in vivo [1]): 277 ng/mL
Tmax (in vivo [2]): 4 h
half-life (in vivo [3]): 11.9 h
AUC(0-t) (in vivo [4]): 1650 ng·h/mL
AUC(0-inf) (in vivo [5]): 1970 ng·h/mL
Vd/F (in vivo [6]): 87.3 L/kg
CL/F (in vivo [7]): 84.8 mL/min/kg
MRT (in vivo [8]): 4.79 h
bioavailability (in vivo [9]): 54.4%
Cmax (in vivo [10]): 50.7 ng/mL
C0 (in vivo [11]): 54.7 ng/mL
half-life (in vivo [12]): 8.09 h
AUC(0-t) (in vivo [13]): 295 ng·h/mL
AUC(0-inf) (in vivo [14]): 362 ng·h/mL
MRT (in vivo [15]): 11.6 h
Structure (SMILES): O=C(O)CCc1cccc(NC(=O)c2cc(Cl)ccc2NC(=O)c2ccc(C(F)(F)F)cc2)c1
